Experimental data from PubChem BioAssay AID591 (National Center for Advancing Translational Sciences (NCATS), 2007).
The entries are a selection whose mix differs from that of the whole data set. Calls of active or inactive are those of the source. No rule for the calls is given here.

Experiment: qHTS Assay for Spectroscopic Profiling in A488 Spectral Region
Conditions: compound autofluorescence, dye equivalency; Compound Type: qHTS ECL - NCI unless noted
Text: NIH Molecular Libraries Screening Centers Network [MLSCN]
NIH Chemical Genomics Center [NCGC]
Occasionally, the artifactual effect may originate from the compounds own spectral or other biophysical properties which generally tend to track its assay concentration. Pre-screening/profiling the library with respect to the compounds spectral properties should help one exclude false positives early on. While the most informative fluorescent profiling data set is obtained by performing a full excitation and emission scan of each well by using a monochromator-based plate reader, such an approach is practical only on a very limited scale as scanning each well requires long time. An alternative approach, applied here, is to perform plate reader scans using selected excitation and emission wavelength pairs to generate a multidimensional relational database that correlates compound concentration and the respective relative fluorescence intensity at a given wavelength set. A standard curve of Alexa 488 (A488) present on each plate as six-point concentration series, was used to compute a normalized fluorescence response, termed dye-equivalent concentration, for each compound at each concentration.
NCGC Assay Protocol Summary:
100 mM Tris buffer, pH 8.0
The wells in columns 1 through 4 of a Kalypsys polypropylene 1536-well compound plate were filled with standard solutions of fluorophore corresponding to the spectral region of interest. Solutions of A488 were placed in the following wells: Y1, Z1: 3 mM, Y2, Z2: 300 uM, Y3, Z3: 30 uM, Y4, Z4: zero (DMSO), AA1, AB1: 3 uM, AA2, AB2: 900 nM, AA3, AB3: 300 nM, AA4, AB4: zero (DMSO).
Six uL of buffer were dispensed to 1536-well Greiner black plates. Compounds and dye standards (23 nL) were transferred via Kalypsys PinTool. The plates were incubated for 15 min at room temperature, and then read on ViewLux (Perkin-Elmer) High-throughput CCD imager using 480 nm and 540 nm excitation and emission filter set.
Keywords: NIH Roadmap, MLSCN, MLI, MLSMR, qHTS, NCGC, A488, A-488, Fluorescent Profiling.

SMILES	outcome
CCN(CC)CC(O)COC(=O)C(O)(c1ccccc1)C1CCCCC1 (stereo not given)	inactive [Compound Type: qHTS ECL - MLSMR]
N#[O+].[C-]#N.[C-]#N.[C-]#N.[C-]#N.[C-]#N.[Fe+2].[Na+].[Na+]	inactive [Compound Type: qHTS ECL - SigmaAldrich]
COc1ccccc1OP(C)(=O)Nc1c(C)n(C)n(-c2ccccc2)c1=O (stereo not given)	inactive [Compound Type: qHTS ECL - DPISMR]
CCc1nc2c(n1)c1c(non1O)c1c2no[n+]1[O-]	inactive [Compound Type: qHTS ECL - DPISMR]
O=C(CO)Nc1ccc([As](=O)(O)O)cc1	inactive
CN(C(=O)Cc1ccccc1)[C@@H]1CC[C@@]2(CCCO2)C[C@H]1N1CCCC1	inactive [Compound Type: qHTS ECL - SigmaAldrich]
C/C1=C2N=C(/C=C3N=C(/C(C)=C4\[N-][C@@](C)([C@H]5N=C1[C@@](C)(CCC(=O)NC[C@H](C)OP(=O)([O-])O[C@@H]1[C@H](O)[C@H](n6cnc7cc(C)c(C)cc76)O[C@@H]1CO)[C@@H]5CC(N)=O)[C@](C)(CC(N)=O)[C@H]4CCC(N)=O)[C@@](C)(CC(N)=O)[C@@H]\3CCC(N)=O)C(C)(C)[C@@H]/2CCC(N)=O.[C-]#N.[Co+3]	inactive [Compound Type: qHTS ECL - Prestwick]
COc1ccccc1OP(C)(=O)Nc1ccc(C)c(C)c1 (stereo not given)	inactive [Compound Type: qHTS ECL - MLSMR]
Cc1nc2ccc3ccccc3c2o1.O=[N+]([O-])c1cc([N+](=O)[O-])c(O)c([N+](=O)[O-])c1	inactive [Compound Type: qHTS ECL - DPISMR]
[N-]=[N+]=NCC(O)CN=[N+]=[N-] (stereo not given)	inactive
C(Cc1nn[nH]n1)c1nn[nH]n1	inactive
O=[N+]([O-])c1ccc(C[As](=O)(O)O)cc1	inactive
NCC[C@@H](N)CSP(=O)(O)O	inactive
O=P1(Nc2nc3ccc(Cl)cc3s2)COc2ccccc2O1 (stereo not given)	inactive [Compound Type: qHTS ECL - DPISMR]
CP(=O)(Nc1ccccc1F)Oc1ccccc1 (stereo not given)	inactive [Compound Type: qHTS ECL - MLSMR]
COC(=O)c1cc2c(s1)N=C(c1ccccc1)N(C)P2(=O)N1CCOCC1 (stereo not given)	inactive [Compound Type: qHTS ECL - MLSMR]
CN(C)CCOC(=O)C(O)(c1ccccc1)C1CCCCC1 (stereo not given)	inactive [Compound Type: qHTS ECL - DPISMR]
[N-]=[N+]=Nc1ccc([As](=O)(O)O)cc1	inactive
O=C(OC1CN2CCC1CC2)c1cccc(Cl)c1 (stereo not given)	inactive [Compound Type: qHTS ECL - DPISMR]
O=P(Nc1nccs1)(c1ccccc1)c1ccccc1	inactive [Compound Type: qHTS ECL - DPISMR]
CCOP(C)(=S)SCC(=O)NC(C)(CC)C(=O)O (stereo not given)	inactive [Compound Type: qHTS ECL - DPISMR]
c1nnnn1CCn1cnnn1	inactive [Compound Type: qHTS ECL - DPISMR]
CN1CCC[C@H](OC(=O)C(c2ccccc2)c2ccccc2)C1	inactive
Cc1ccccc1NP(C)(=O)Nc1ccccc1C	inactive [Compound Type: qHTS ECL - DPISMR]
C[C@@H](O)COc1ccc([As](=O)(O)O)cc1N	inactive
NNC(NN)NN.n1nc(-c2nn[nH]n2)n[nH]1	inactive
CN(CCCl)Cc1cc(Cl)c(NC2=NCCN2)c(Cl)c1	inactive [Compound Type: qHTS ECL - SigmaAldrich]
O=P1(Nc2ccccn2)COc2ccccc2OC1	inactive [Compound Type: qHTS ECL - DPISMR]

SMILES	outcome
Clc1n[nH]nc1-c1nn[nH][15n]1	inactive [Compound Type: qHTS ECL - MLSMR]
Cc1nc2ccc3ccccc3c2s1.O=[N+]([O-])c1cc([N+](=O)[O-])c(O)c([N+](=O)[O-])c1	inactive [Compound Type: qHTS ECL - DPISMR]
CN(C(=O)Cc1ccc(Cl)c(Cl)c1)[C@@H]1CCCC[C@H]1N1CCCC1	inactive [Compound Type: qHTS ECL - SigmaAldrich]
Cc1nn(-c2ccccc2)c2c1P(=O)(N1CCOCC1)N(C)C(c1ccccc1)=N2 (stereo not given)	inactive [Compound Type: qHTS ECL - MLSMR]
O=P1(Nc2ncccn2)COc2ccccc2OC1	inactive [Compound Type: qHTS ECL - DPISMR]
O=P1(Nc2ccc(Br)cn2)COc2ccccc2OC1	inactive [Compound Type: qHTS ECL - DPISMR]
Cc1ccc(OCC(=O)OC2CN3CCC2CC3)cc1 (stereo not given)	inactive [Compound Type: qHTS ECL - MLSMR]
CCOP1(=S)c2c(C)nn(CCC#N)c2N=C(c2ccccc2F)N1C (stereo not given)	inactive [Compound Type: qHTS ECL - MLSMR]
O=P(Nc1nccs1)(c1ccccc1)c1nc2ccccc2s1 (stereo not given)	inactive [Compound Type: qHTS ECL - MLSMR]
O=[As](O)(O)c1ccc([As](=O)(O)O)cc1	inactive
NC(=O)Nc1ccc([As](=O)(O)O)cc1	inactive [Compound Type: qHTS ECL - Prestwick]
CCOP1(=S)c2c(C)nn(CCC#N)c2N=C(c2ccc(F)cc2)N1C (stereo not given)	inactive [Compound Type: qHTS ECL - MLSMR]
Cc1cccc(OCC(=O)OC2CN3CCC2CC3)c1 (stereo not given)	inactive [Compound Type: qHTS ECL - MLSMR]
O=C(CC(=O)c1ccccc1)O[C@H]1CN2CCC1CC2	inactive
NS(=O)(=O)Cc1ccc([As](=O)(O)O)cc1	inactive
CN(C(=O)Cc1ccc(Cl)c(Cl)c1)[C@@H]1CC[C@@]2(CCCO2)C[C@H]1N1CCCC1	inactive [Compound Type: qHTS ECL - SigmaAldrich]
O=C(OC1CN2CCC1CC2)C12CC3CC(CC(C3)C1)C2 (stereo not given)	inactive [Compound Type: qHTS ECL - DPISMR]
NC(=O)Nc1cc([As](=O)(O)O)cc(I)c1O	inactive
[N-]=[N+]=NCC(N)=O	inactive
COc1ccccc1OP(C)(=O)Nc1ccc(C)cc1 (stereo not given)	inactive [Compound Type: qHTS ECL - MLSMR]
O=[As]c1ccc(S(=O)(=O)NCCO)cc1 (stereo not given)	inactive
N1=C(c2nnc(-c3nn[nH]n3)nn2)NNN1	inactive
CP(=S)(Nn1cnnc1)Oc1ccccc1 (stereo not given)	inactive [Compound Type: qHTS ECL - DPISMR]
COP1(=S)c2c(C)nn(CCC#N)c2N=C(c2ccc(F)cc2)N1C (stereo not given)	inactive [Compound Type: qHTS ECL - MLSMR]
O=C(O)[C@@H](O)c1ccc([As](=O)(O)O)cc1	inactive
CP(=O)(NC(=O)Nc1ccccc1)Oc1ccccc1 (stereo not given)	inactive [Compound Type: qHTS ECL - MLSMR]
O=C(COc1ccccc1)OC1CN2CCC1CC2 (stereo not given)	inactive [Compound Type: qHTS ECL - DPISMR]
